OPERA 2.9 data: melting point values

Values as listed in the OPERA 2.9 repository of K. Mansouri.

Melting points are in °C.

| SMILES | mp (°C) |
|---|---|
| C=CCC[C@H]1CC[C@H]([C@H]2CC[C@H](c3ccc(C)cc3)CC2)CC1 | 103.7 |
| COc1ccc(C)cc1CC(=O)O | 132 |
| C1CCC(P(CP(C2CCCCC2)C2CCCCC2)C2CCCCC2)CC1 | 98.5 |
| CCN(CC)Cc1ncccc1O | 142 |
| Nc1ccc(OCCC(F)(F)C(F)(F)C(F)(F)C(F)(F)C(F)(F)C(F)(F)F)cc1 | 47.5 |
| CCOC(=O)Nc1cccc(C(=O)O)c1 | 197 |
| O=c1nc[nH]c2ncccc12 | 250 |
| Cc1ccc2c(c1)C(C)(C)C(C)CC2(C)C (stereo not drawn) | 64.4 |
| CN(C)c1ccc(C(O)(c2ccc(N(C)C)cc2)c2ccc(N(C)C)cc2)cc1 | 180 |
| O=C(c1ccc(Cl)cc1)N1CCNCC1 | 81 |
| O=Cc1ccc(-c2ccc(F)cc2)o1 | 80 |
| Cc1ccc(S(=O)(=O)Nc2ccc3nn(C4CCCC4)nc3c2)cc1 | 126 |
| CC(=O)NCc1ccc(C(=O)CCl)cc1 | 140 |
| CC(C)C(NC(=O)Nc1ccccc1)C(=O)O (stereo not drawn) | 141 |
| O=C1CNc2ccccc2N1 | 120 |
| CC(C)(C)N(NC(=O)c1ccccc1)C(=O)c1cccc(C#N)c1 | 174 |
| C[C@H](CCC(=O)NCCS(=O)(=O)O)[C@H]1CC[C@H]2[C@@H]3[C@H](O)C[C@@H]4C[C@H](O)CC[C@]4(C)[C@H]3C[C@H](O)[C@]12C | 125 |
| Cc1noc(-c2ccccc2N)n1 | 121 |
| COc1cc(N)ccc1N | 107 |
| NS(=O)(=O)c1cccnc1 | 110 |
| NC(=NO)C(c1ccccc1)c1ccccc1 | 125 |
| O=C(O)C=Cc1cc(Br)ccc1F | 194.5 |
| CCOc1cc(C=O)ccc1OCc1c(Cl)cccc1Cl | 116 |
| CO/N=C1\C[C@]2(C[C@@H]3C[C@@H](CC=C(C)C[C@@H](C)C=CC=C4CO[C@@H]5[C@H](O)C(C)=C[C@@H](C(=O)O3)[C@]45O)O2)O[C@H](/C(C)=C/C(C)C)[C@H]1C | 150 |
| COc1cc(NC(=O)CC#N)c(Cl)cc1Cl | 201.9 |
| O=C1C=CC(=O)N1CCc1ccccc1 | 110 |
| CC1N=C(O)CN=C1O (stereo not drawn) | 247 |
| COc1ccc(-c2csc(N)n2)cc1F | 186 |
| O=C(O)CCc1nc2sc3c(c2c(=O)[nH]1)CCCC3 | 141 |
| Nc1nc(-c2ccc(F)cc2)cs1 | 112 |
| NC(=O)COc1ccc(C=O)cc1 | 135 |
| CCCCCCCC/C=C\CCCCCCCC(=O)N[C@@H](CO)[C@H](O)[C@H](O)CCCCCCCCCCCCCC | 101 |
| N#CCc1nnc2n1CCCCC2 | 114 |
| COC(=O)C(C#N)c1nc2ccccc2nc1Cl (stereo not drawn) | 198 |
| Cc1ccc2cc(CCl)c(Cl)nc2c1C | 110 |
| O=c1nc[nH]c2cc(F)ccc12 | 261 |
| CCCCCCC(=O)OCC(COC(=O)CCCCCC)OC(=O)CCCCCC | -32.5 |
| C=C(C)C(=O)OC(O)CCC (stereo not drawn) | -19.65 |
| Cc1nnc(S)n1-c1ccccc1 | 225 |
| CC(C)NC(=O)CCCl | 68 |
| CC(=O)c1ccc(S(=O)(=O)N(C)C)cc1 | 100 |
| COc1ccc(C(=O)NCCCC(=O)O)cc1 | 123 |
| CC(=O)Nc1cccc(N)c1C | 143 |
| COc1cccc(NC(=S)NN)c1 | 169 |
| OCC[N+](CCO)(CCO)CCO.[OH-] | 123 |
| COc1ccc(S(=O)(=O)N2CCNCC2)cc1OC | 146 |

Repeated from above, the 6 entries with the highest mp:

{"smiles": "O=c1nc[nH]c2cc(F)ccc12", "mp (°C)": "261"}
{"smiles": "O=c1nc[nH]c2ncccc12", "mp (°C)": "250"}
{"smiles": "CC1N=C(O)CN=C1O", "stereo": "stereo not drawn", "mp (°C)": "247"}
{"smiles": "Cc1nnc(S)n1-c1ccccc1", "mp (°C)": "225"}
{"smiles": "COc1cc(NC(=O)CC#N)c(Cl)cc1Cl", "mp (°C)": "201.9"}
{"smiles": "COC(=O)C(C#N)c1nc2ccccc2nc1Cl", "stereo": "stereo not drawn", "mp (°C)": "198"}

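The OPERA project collected these measurements from public sources as training and test data for property models. The files give a single number for a compound and property, which may rest on several reports. Method, purity and exact conditions of the single measurements are not given. The measured form (salt, isomer or mixture) is not always the one drawn. Some entries may be limits or estimates that an upstream database listed as plain numbers.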